# Source: EP1352977A2, “Novel Desulfitobacterium strain for the degradation of chloroalkenes” (UNIVERSITEIT GENT, priority 2002, dated 2003)
# Read-outs that look alike come from different tables or passages of the source.
# Assays:
# [1] = test system: Desulfitobacterium dichloroeliminans strain DCA1; assay: 1,2-DCA dechlorination by culture of strain DCA1 (rate, conversion, selectivity)
# [2] = test system: bi-bacterial consortium comprising Desulfitobacterium dichloroeliminans strain DCA1 and Enterococcus cells; assay: Dechlorination of 1,2-DCA containing groundwater by 1 vol% inoculum of bacterial consortium
# [3] = test system: Dehalococcoides ethenogenes strain 195; settings: cited from earlier work; for selectivity VC: VC produced upon conversion; for selectivity ethene: molar selectivity
substance,measurement,setting,value
"1,2-dichloroethane",dechlorination rates,"[1]; pure culture of strain DCA1, media containing 0.1% (w/w) yeast extract",exceeded 250 nmol Cl^- /mgprotein/min
same,"1,2 DCA conversion rate",[1]; strain DCA1,5 to 56 µmol (L.h)
same,"time to convert 400 µM of 1,2-DCA","[1]; vitamin B12 containing media, 5 vol% transfer",≤ 3 days
same,"amount of 1,2-DCA dichloroeliminated","[1]; with additional electron donors H2, lactate or pyruvate, 0.02% yeast extract",up to 6 mM
same,time to full detoxification,"[2]; groundwater containing 400 µM of 1,2-DCA, laboratory conditions, 18°C",≤ 1 week
same,"time to dechlorinate 400 µM 1,2-DCA containing groundwater","[2]; technical grade lactate, 13°C",≤ 10 days
same,selectivity VC,"[3]; listed as 1,2 DCA",1%
same,selectivity VC,[3],1%
same,"1,2 DCA conversion rate",[3],2 to 36 µmol (L.h)
same,conversion,[3],∼100%
same,selectivity ethene,"[3]; listed as 1,2 DCA",>99.0%
same,selectivity ethene,[3],99%
